Test system: SCID mouse
Conditions: for Toxic response after 0.1 mg/kg: SCID mouse, 0.1 mg/kg injected; for Toxic response after 0.1 mg/kg / Adverse effects after further 1 mg/kg: after 48 hours; for Adverse effects during whole treatment incl. additional 10 mg/kg: same mouse, 0.1, 1 and 10 mg/kg in sequence; for Adverse effects after further 1 mg/kg: same mouse

| Substance | Toxic response after 0.1 mg/kg | Adverse effects during whole treatment incl. additional 10 mg/kg | Adverse effects after further 1 mg/kg |
| --- | --- | --- | --- |
| 3-Allyl 7,11-dimethyldodeca-2(Z),6(E),10-trien-1-ol [3-ally Farnesol] | No toxic response | No visible adverse effects | no adverse effects |
| 3-Vinyl-7,11-dimethyldodeca-2(Z),6(E),10-trien-1-ol [3-vinyl Farnesol] | No toxic response | No visible adverse effects | no adverse effects |

— patent US6586461B1, “Prenyl transferase inhibitors” (Wayne State University, priority 1998, dated 2003)
